In the assay the test system is vancomycin-resistant E. faecium (ATCC700221) (VREF). The experiment in a line: Antimicrobial growth inhibition (MIC), VREF. Particulars: Enterococcus faecium, ATCC700221, read-out: VREF (MIC).

In brackets after ≈: the same amount, converted by molar mass.

The source of these data is patent US9920058B2, “Molecules with potent DHFR binding affinity and antibacterial activity” (Georgia Tech Research Corporation, priority 2013, dated 2018).

Consider `Nc1nc2[nH]cc(CCc3ccc(C(=O)N[C@@H](CCC(=O)O)C(=O)O)cc3)c2c(=O)[nH]1` [NSC698037, pemetrexed], for which the MIC stood at 500 µg/mL (≈ 1170 µM).
